According to patent publication US4758421A, “Bleomycin conjugates and method” (priority 1985, dated 1988):

Tested on: Chinese hamster ovary (CHO) cells
Assay: CHO cell survival after 60 minutes exposure (FIG. 4)
Format: cell-based
Procedure: Chinese hamster ovary (CHO) cells were cultured in standard cell-culture medium, under log phase growth conditions. Increasing concentrations of either BL--Co--S--FeEDTA or FeEDTA were added to each of two groups of cells. The cells were incubated for 60 minutes at 37° C., and the percent cell survivors was determined conventionally by serial dilution in microtitre plates.

**Q.** bleomycin [metal free bleomycin] was tested. Which cell toxicity did it give?
**A.** high toxicity
